TDP1 block = TDP1 (human) enzyme inhibition. 0.28% of 350,000 active. Q9NUW8. Potency, µM (series often up to 130 µM), hits mostly inhibitors. recombinant TDP1, AlphaScreen DNA substrate cleavage; further: nearly all actives have a fitted effect of over 40% in size
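Compounds were preincubated with Tdp1 (1 nM final) for 15 min at room temperature before substrate (15 nM final) started a 5 min reaction; beads (10 ug/ml final) were then added for 10 min before AlphaScreen detection.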
uPA generation = cell surface uPA generation inhibition; cell surface uPA generation assay, qHTS; Potency, µM (doses to about 38.3 µM), hits mostly inhibitors; 0.31% of 330,000 active; AID 540303; active means well fitted inhibition curve with a large enough effect; inconclusive means small, poorly fitted or top-dose-only effect; inactive means no such curve, though single readings can be large or run the other way; tested in mouse RAW 264.7 cells; further: nearly all actives have a fitted effect of over 55% in size
TDP1 cell CPT = DT40-hTDP1 cell growth loss with CPT; chicken DT40 Tdp1-/-;hTDP1 cells + 20 nM CPT, ATP luminescence, 48 h; Potency, µM (titrated, usually from 46.2 µM), most hits filed as inhibitors; 12% of 420,000 active; AID 686979; further: nearly all actives have a fitted effect of over 55% in size
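Chicken DT40 Tdp1-/- cells complemented with human TDP1, 400 cells/well, exposed to compounds plus 20 nM camptothecin for at least 48 h at 37 C; viability read as ATP content by CellTiter-Glo luminescence.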
miR-21 reporter = raises the signal of a miR-21 reporter | HeLa miR-21 FLuc reporter, luciferase, 48 h | Potency, µM (highest dose often 38.3 µM) | 340,000 tested, under 10 active | AID 2288; active = well fitted rising curve with a large enough effect; inconclusive = small, poorly fitted or top-dose-only effect; inactive = no such curve, though single readings can be large or run the other way;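 also: miR-21 action dims this reporter so a rising signal means less miR-21 action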
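Compounds were titrated across several concentrations (up to approximately 40 uM) and incubated 48 hours with HeLa miR-21-FLuc reporter cells (miR-21 target sequence downstream of FLuc, endogenous miR-21). Readout was firefly luciferase luminescence after lytic detection reagent.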
TDP1 cell noCPT = qHTS for Inhibitors of human tyrosyl-DNA phosphodiesterase 1 (TDP1): qHTS in cells in absence of CPT; DT40 Tdp1-/- hTDP1 cells, no CPT, ATP luminescence, 48 h; Potency, µM (highest dose often 46.2 µM), most hits filed as inhibitors; 15% of 420,000 active; AID 686978, 2013; further: nearly all actives have a fitted effect of over 55% in size
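No-CPT arm: Tdp1-/-;hTDP1 DT40 cells (400/well) plus compounds, incubated ≥48 hr at 37 °C. Readout CellTiter-Glo luminescence.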
Large screens that a line does not name were inactive. Sampled rows, rich in hits. Any-hit rate of the full collection: about 16%. Unless noted, the call rests on the fitted dose curve; in most records, active means well fitted curve in the direction sought with a large enough effect; inconclusive means small, poorly fitted or top-dose-only effect, or another doubt; inactive means no such curve, though single readings can be large; an effect the other way counts as inactive or inconclusive.

O=C(c1cc(S(=O)(=O)N2CCOCC2)ccc1Cl)N1CCN(c2ccccn2)CC1	TDP1 cell noCPT inconclusive
O=C(c1ccc(Cl)c(S(=O)(=O)N2CCOCC2)c1)N1CCN(c2ccccc2)CC1	TDP1 cell CPT inconclusive, TDP1 cell noCPT inconclusive
CN(c1ccccc1)S(=O)(=O)c1cc(C(=O)N2CCN(c3ccccn3)CC2)ccc1Cl	TDP1 cell CPT 9.2µM, TDP1 cell noCPT 7.3µM
CC(=O)N1CCN(C(=O)c2cc(S(=O)(=O)N3CCN(c4ccccc4)CC3)ccc2Cl)CC1	TDP1 cell CPT inconclusive, TDP1 cell noCPT 10µM (no result: miR-21 reporter)
O=C(c1ccc(Cl)c(S(=O)(=O)N2CCCC2)c1)N1CCN(c2ccccc2)CC1	TDP1 cell CPT 18µM, TDP1 cell noCPT inconclusive
O=C(c1ccc(Cl)c(S(=O)(=O)N2CCCCC2)c1)N1CCN(c2ccccc2)CC1	TDP1 cell CPT 23µM, TDP1 cell noCPT inconclusive
O=C(NN1CCCCC1)c1ccc(COc2ccc(Cl)cc2)cc1	none
O=C(c1ccc(Cl)c(S(=O)(=O)N2CCCC2)c1)N1CCN(c2ccc(F)cc2)CC1	TDP1 cell CPT inconclusive, TDP1 cell noCPT 13µM
O=C(c1ccc(Cl)c(S(=O)(=O)N2CCCCC2)c1)N1CCCCC1	TDP1 cell CPT inconclusive
CN1CC(=O)NC1=NC(=O)c1ccc(Cl)c(S(=O)(=O)N2CCCCCC2)c1	TDP1 cell CPT inconclusive, TDP1 cell noCPT 8.2µM
Cc1cc(C)c2c(N)c(S(=O)c3ccc(C(C)(C)C)cc3)sc2n1 (stereo not drawn)	TDP1 cell CPT inconclusive, TDP1 cell noCPT inconclusive
O=C1CC(c2nc3ccccc3n2CCCCOc2ccccc2)CN1c1ccccc1Cl (stereo not drawn)	TDP1 cell CPT 10µM, miR-21 reporter inconclusive, TDP1 cell noCPT 15µM (no result: uPA generation)
C#CCn1c(C2CC(=O)N(c3ccc(OC)cc3)C2)nc2ccccc21 (stereo not drawn)	none (no result: uPA generation)
CCOc1ccccc1N1CC(c2nc3ccccc3n2CCCOc2ccccc2)CC1=O (stereo not drawn)	TDP1 cell noCPT inconclusive (no result: uPA generation)
CCOc1ccc(N2CC(c3nc4ccccc4n3Cc3cccc(Cl)c3)CC2=O)cc1 (stereo not drawn)	TDP1 cell CPT inconclusive, TDP1 cell noCPT 16µM (no result: uPA generation)
Cc1ccc(OCCCn2c(C3CC(=O)N(c4cccc(Cl)c4)C3)nc3ccccc32)c(C)c1 (stereo not drawn)	TDP1 cell noCPT 9.2µM (no result: uPA generation)
COc1ccc(OCCCCn2c(C3CC(=O)N(c4cccc(Cl)c4)C3)nc3ccccc32)cc1 (stereo not drawn)	TDP1 cell CPT 8.2µM, miR-21 reporter inconclusive, TDP1 cell noCPT 5.8µM (no result: uPA generation)
COc1ccc(-c2c(C)nn3c(N4CCN(c5ccccc5F)CC4)cc(C)nc23)cc1OC	none (no result: uPA generation, TDP1 cell CPT, TDP1 cell noCPT)
C=C(C)c1cccc(C(C)(C)NC(=O)NCC2CCCO2)c1 (stereo not drawn)	none
O=C(c1ccccc1NS(=O)(=O)c1ccc(Cl)cc1)N1CCc2ccccc21	none
O=C1c2ccc(Cl)cc2S(=O)(=O)c2cccc(C(=O)N3CCN(c4ncc(Br)cn4)CC3)c21	TDP1 cell CPT inconclusive, TDP1 cell noCPT 21µM (no result: miR-21 reporter)
COc1ccc(-c2ccc3c(c2)S(=O)(=O)c2cccc(C(=O)N4CCN(c5c(Cl)cncc5Cl)CC4)c2C3=O)cc1OC	TDP1 cell CPT 5.8µM, TDP1 cell noCPT 5.2µM (no result: miR-21 reporter)
N#Cc1cccnc1N1CCN(C(=O)c2cccc3c2C(=O)c2ccc(Cl)cc2S3(=O)=O)CC1	TDP1 cell CPT inconclusive, TDP1 cell noCPT 16µM (no result: miR-21 reporter)
CC1=CC(C)(C)N=C(Nc2nc(C)c3cc(C)cc(C)c3n2)N1	uPA generation inconclusive, TDP1 cell CPT 15µM, TDP1 cell noCPT 16µM
Cc1cc(C)c2nc(NC3=NCN(CCN4CCOCC4)CN3)nc(C)c2c1	none (no result: uPA generation, TDP1 cell CPT, TDP1 cell noCPT)
COc1ccc(/C=C/C(=O)NC(=S)Nc2ccc(C(=O)O)cc2)cc1	TDP1 block 89µM
CCC(=O)Nc1ccc(NC(=S)NC(=O)/C=C/c2ccccc2)cc1	TDP1 block inconclusive, TDP1 cell CPT inconclusive, TDP1 cell noCPT 7.3µM
COc1ccc(NS(=O)(=O)c2ccc(NC(=S)NC(=O)/C=C/c3ccccc3)cc2)nn1	TDP1 cell CPT 12µM, TDP1 cell noCPT 16µM
CC(=O)c1ccc(NC(=S)NC(=O)/C=C/c2ccccc2)cc1	none
